# Columns and labels:
# Chains of the proteins cited; added tags and fusions are not shown. A line that says so, or that is headed by a name, gives the form on record, which may keep a tag or linker. Residues count along the entry.
# UniProt P14780, 20-707 R574P limits assumed: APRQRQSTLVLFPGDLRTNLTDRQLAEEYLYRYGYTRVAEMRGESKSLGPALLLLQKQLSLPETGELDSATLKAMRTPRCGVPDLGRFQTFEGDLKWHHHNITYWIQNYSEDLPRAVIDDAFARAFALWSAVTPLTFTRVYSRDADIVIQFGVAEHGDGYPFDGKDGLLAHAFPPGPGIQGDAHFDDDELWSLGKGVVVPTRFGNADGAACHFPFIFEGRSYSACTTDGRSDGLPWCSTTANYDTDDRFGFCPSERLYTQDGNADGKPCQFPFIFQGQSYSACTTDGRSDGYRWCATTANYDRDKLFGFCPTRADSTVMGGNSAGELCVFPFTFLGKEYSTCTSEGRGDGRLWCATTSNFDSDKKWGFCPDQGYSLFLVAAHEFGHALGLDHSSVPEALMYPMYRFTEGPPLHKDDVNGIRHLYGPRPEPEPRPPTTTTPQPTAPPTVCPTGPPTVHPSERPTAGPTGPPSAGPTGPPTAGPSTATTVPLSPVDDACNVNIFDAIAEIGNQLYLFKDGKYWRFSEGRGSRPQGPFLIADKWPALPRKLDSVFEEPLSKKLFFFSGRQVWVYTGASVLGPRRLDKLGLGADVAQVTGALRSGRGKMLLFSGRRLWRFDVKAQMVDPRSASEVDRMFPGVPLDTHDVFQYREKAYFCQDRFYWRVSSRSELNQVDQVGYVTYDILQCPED
# UniProt P14780, 20-444 with tags or gaps DEL216-390 limits assumed: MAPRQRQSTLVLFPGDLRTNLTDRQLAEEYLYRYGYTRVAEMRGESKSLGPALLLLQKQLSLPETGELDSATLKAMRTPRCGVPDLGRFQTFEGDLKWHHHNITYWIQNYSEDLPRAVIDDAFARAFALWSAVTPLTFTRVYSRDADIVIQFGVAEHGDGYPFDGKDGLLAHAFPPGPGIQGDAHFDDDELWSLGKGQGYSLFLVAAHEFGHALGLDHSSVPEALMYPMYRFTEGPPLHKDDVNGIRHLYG
# UniProt P14780, 67-444 with tags or gaps DEL216-390 limits assumed: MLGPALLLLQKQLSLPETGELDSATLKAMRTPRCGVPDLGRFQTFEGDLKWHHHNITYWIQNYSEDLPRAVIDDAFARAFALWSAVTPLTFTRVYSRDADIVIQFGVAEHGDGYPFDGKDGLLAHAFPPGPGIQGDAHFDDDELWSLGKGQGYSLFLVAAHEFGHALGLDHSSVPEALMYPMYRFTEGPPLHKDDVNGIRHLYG
# [1] = target: proMMP9(20-445;ΔFnII) (SEQ ID NO:6) (Homo sapiens, UniProt P14780, DEL216-390); test: ThermoFluor binding assay with proMMP9(20-445;ΔFnII); details: read-out: proMMP9(20-445;ΔFnII) (SEQ ID NO: 6) binding
# Protocol: (§1) The ThermoFluor® (TF) assay is a 384-well plate-based binding assay that measures thermal stability of proteins (Biomol Screen 2001, 6, 429-40; Biochemistry 2005, 44, 5258-66). The experiments were carried out using instruments available from Johnson & Johnson Pharmaceutical Research & Development, LLC. TF dye used in all experiments was […] (1,8-ANS) (Invitrogen: A-47).
# (§2) Compounds were arranged in a pre-dispensed plate (Greiner Bio-one: 781280), wherein compounds were serially diluted in 100% DMSO across 11 columns within a series. Columns 12 and 24 were used as DMSO reference and contained no compound. […]
# (§3) Assay plates were robotically loaded onto a thermostatically controlled PCR-type thermal block and then heated from 40 to 90° C. at a ramp-rate of 1° C./min for all experiments. Fluorescence was measured by continuous illumination with UV light (Hamamatsu LC6) supplied via fiber optics and filtered through a band-pass filter (380-400 nm; >60D cutoff). Fluorescence emission of the entire 384-well plate was detected by measuring light intensity using a CCD camera (Sensys, Roper Scientific) filtered to detect 500±25 nm, resulting in simultaneous and independent readings of all 384 wells. […]
# [2] = target: proMMP9(67-444;ΔFnII) (SEQ ID NO:5) (Homo sapiens, UniProt P14780, DEL216-390); test: ThermoFluor binding assay with proMMP9(67-444;ΔFnII); details: read-out: proMMP9(67-444;ΔFnII) (SEQ ID NO: 5) binding
# Protocol: as §1, §2, §3
# [3] = target: full-length proMMP9(1-707) (SEQ ID NO:1), activation by catalytic MMP3 (Homo sapiens, UniProt P14780, R574P); test: proMMP9/MMP3 P126 Activation Assay; details: read-out: proMMP9/MMP3 P126 Activation Assay, IC50
# Protocol: proMMP9/MMP3 P126 Activation Assay
# Compounds were assessed for inhibition of proMMP9 activation by catalytic MMP3, MMP3(100-265) (SEQ ID NO:8) using full-length proMMP9(1-707) (SEQ ID NO:1) purified from HEK293 cells and a peptide (Mca-PLGL-Dpa-AR-NH2, BioMol P-126) that fluoresces upon cleavage by catalytic MMP9. The assay buffer employed was 50 mM Hepes, pH 7.5, 10 mM CaCl2, 0.05% Brij-35. DMSO was included at a final concentration of 2%, arising from the test compound addition. On the day of assay, proMMP9(1-707) (SEQ ID NO:1) purified from HEK293 cells and MMP3(100-265) (SEQ ID NO:8) were diluted to 400 nM in assay buffer. The reaction volume was 50 μL. In 96-well black plates (Costar 3915), 44 μL of assay buffer was mixed with 1.0 μL of test compound, 2.5 μL of 400 nM proMMP9(1-707) (SEQ ID NO:1) purified from HEK293 cells and the reaction was initiated with 2.5 μL of 400 nM MMP3(100-265) (SEQ ID NO:8).The plate was sealed and incubated for 80 min at 37° C. […]
structure (smiles),measurement,setting,value
Cn1cnc2cc(-c3csc(Nc4cc(C(N)=O)ccc4OC(F)(F)F)n3)ccc21,Kd,[1],520 nM
same,Kd,[2],2600 nM
same,IC50,[3],710 nM

# Source: US20120129872A1, “FUSED HETEROARYL INHIBITORS OF PRO-MATRIX METALLOPROTEINASE ACTIVATION” (priority 2010, published 2012)
